Data published in ChEMBL document CHEMBL6134906, “Design, Synthesis, and Biological Evaluation of Selective STING Synergists That Enhance cGAMP-STING Pathway Activation without Inherent Agonist Activity” (J Med Chem, 2025).

Key:
[1] = biological target: T1, Stimulator of interferon genes protein (Mus musculus) (UniProt Q3TBT3); test: Agonist activity at mouse STING expressed in HEK293 cells assessed as SEAP production at 100 uM incubated for 48 hrs by QUANTI-Blue solution based spectrophotometric analysis; type: cell-based
T1 sequence (whole entry): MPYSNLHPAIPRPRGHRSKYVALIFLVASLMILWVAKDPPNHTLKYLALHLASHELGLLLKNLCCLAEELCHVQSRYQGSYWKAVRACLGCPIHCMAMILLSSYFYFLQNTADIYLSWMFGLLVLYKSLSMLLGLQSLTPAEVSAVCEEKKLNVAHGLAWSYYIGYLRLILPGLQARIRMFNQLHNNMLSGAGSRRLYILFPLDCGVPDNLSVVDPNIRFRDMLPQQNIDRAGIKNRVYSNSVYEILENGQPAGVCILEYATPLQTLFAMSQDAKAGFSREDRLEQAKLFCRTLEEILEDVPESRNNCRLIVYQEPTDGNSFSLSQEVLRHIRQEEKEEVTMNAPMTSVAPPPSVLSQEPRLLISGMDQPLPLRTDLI

HEK293 [2] = test: Cytotoxicity against human HEK293 cells expressing human STING assessed as reduction in cell viability at 100 uM incubated for 48 hrs by CellTiter Glo luminescent cell viability assay; type: toxicity, cell-based; conditions: hek293, 48 h
HEK293 [3] = test: Cytotoxicity against human HEK293 cells expressing mouse STING assessed as reduction in cell viability at 100 uM incubated for 48 hrs by CellTiter Glo luminescent cell viability assay; type: toxicity, cell-based; conditions: hek293, 48 h
[4] = Toxicity in male C57BL/6 mouse model implanted with mouse B16-F10 cells assessed as effect on body weight at 20 mg/kg, ip co-administered with PD-L1 antibody on days 7, 10 and 13; type: organism-based; conditions: in vivo, 168 h, time 7 day
[5] = Cytotoxicity against human PBMC cells assessed as increase in IFN-beta mRNA level at 5 to 100 uM incubated for 4 hrs by RT-qPCR analysis; type: toxicity, cell-based; conditions: dose 5-100 µM
[6] = Cytotoxicity against human PBMC cells assessed as increase in CXCL-10 mRNA level at 5 to 100 uM incubated for 4 hrs by RT-qPCR analysis; type: toxicity, cell-based; conditions: dose 5-100 µM
[7] = Cytotoxicity against human PBMC cells assessed as increase in IL-6 mRNA level at 5 to 100 uM incubated for 4 hrs by RT-qPCR analysis; type: toxicity, cell-based; conditions: dose 5-100 µM
[8] = Cytotoxicity against human PBMC cells assessed as increase in IL6 mRNA level at 25 uM incubated for 4 hrs in presence of cGAMP by RT-qPCR analysis; type: toxicity, cell-based
[9] = Cytotoxicity against human PBMC cells assessed as reduction in cell viability at 5 to 100 uM incubated for 24 hrs by CellTiter-Glo assay; type: toxicity, cell-based; conditions: dose 5-100 µM
[10] = Cytotoxicity against human PBMC cells assessed as reduction in cell viability at 25 uM incubated for 24 hrs in presence of cGAMP by CellTiter-Glo assay; type: toxicity, cell-based
[11] = Toxicity in male C57BL/6 mouse assessed as effect on physical appearance at 20 to 100 mg/kg, ip administered for 7 days; type: organism-based; conditions: in vivo, 168 h, dose 20-100 mg/kg, time 7 day
[12] = Toxicity in male C57BL/6 mouse assessed as effect on behavior at 20 to 100 mg/kg, ip administered for 7 days; type: organism-based; conditions: in vivo, 168 h, dose 20-100 mg/kg, time 7 day
[13] = Toxicity in male C57BL/6 mouse assessed as effect on body weight at 20 to 100 mg/kg, ip administered for 7 days; type: organism-based; conditions: in vivo, 168 h, dose 20-100 mg/kg, time 7 day
[14] = Toxicity in male C57BL/6 mouse assessed as effect on lung weight at 20 to 100 mg/kg, ip administered for 7 days; type: organism-based; conditions: in vivo, 168 h, dose 20-100 mg/kg, time 7 day
[15] = Toxicity in male C57BL/6 mouse assessed as effect on spleen weight at 20 to 100 mg/kg, ip administered for 7 days; type: organism-based; conditions: in vivo, 168 h, dose 20-100 mg/kg, time 7 day
[16] = Toxicity in male C57BL/6 mouse assessed as effect on heart architecture at 20 to 100 mg/kg, ip administered for 7 days by H and E staining based analysis; type: organism-based; conditions: in vivo, 168 h, dose 20-100 mg/kg, time 7 day
[17] = Toxicity in male C57BL/6 mouse assessed as effect on kidney architecture at 20 to 100 mg/kg, ip administered for 7 days by H and E staining based analysis; type: organism-based; conditions: in vivo, 168 h, dose 20-100 mg/kg, time 7 day
[18] = Toxicity in male C57BL/6 mouse assessed as hepatocellular vacuolation at 100 mg/kg, ip administered for 7 days by H and E staining based analysis; type: organism-based; conditions: in vivo, 168 h, time 7 day
[19] = Toxicity in male C57BL/6 mouse assessed as inflammatory infiltration at 100 mg/kg, ip administered for 7 days by H and E staining based analysis; type: organism-based; conditions: in vivo, 168 h, time 7 day
[20] = Toxicity in male C57BL/6 mouse assessed as aspartate aminotransferase level at 100 mg/kg, ip administered for 7 days by biochemical analysis (reference value: 136.8 U/L); type: organism-based; conditions: in vivo, 168 h, time 7 day
[21] = Toxicity in male C57BL/6 mouse assessed as alkaline phosphatase level at 20 mg/kg, ip administered for 7 days by biochemical analysis (reference value: 268.4 U/L); type: organism-based; conditions: in vivo, 168 h, time 7 day
[22] = Toxicity in male C57BL/6 mouse assessed as alkaline phosphatase level at 100 mg/kg, ip administered for 7 days by biochemical analysis (reference value: 268.4 U/L); type: organism-based; conditions: in vivo, 168 h, time 7 day
[23] = Toxicity in male C57BL/6 mouse assessed as blood urea nitrogen level at 20 mg/kg, ip administered for 7 days by biochemical analysis (reference value: 6.9 mmol/L); type: organism-based; conditions: in vivo, 168 h, time 7 day
[24] = Toxicity in male C57BL/6 mouse assessed as blood urea nitrogen level at 100 mg/kg, ip administered for 7 days by biochemical analysis (reference value: 6.9 mmol/L); type: organism-based; conditions: in vivo, 168 h, time 7 day
[25] = Toxicity in male C57BL/6 mouse assessed as uric acid level at 100 mg/kg, ip administered for 7 days by biochemical analysis (reference value: 0.13 mmol/L); type: organism-based; conditions: in vivo, 168 h, time 7 day
[26] = Toxicity in male C57BL/6 mouse assessed as creatine kinase level at 20 mg/kg, ip administered for 7 days by biochemical analysis (reference value: 312.6 U/L); type: organism-based; conditions: in vivo, 168 h, time 7 day
[27] = Toxicity in male C57BL/6 mouse assessed as CK-MB level at 20 mg/kg, ip administered for 7 days by biochemical analysis (reference value: 203.2 U/L); type: organism-based; conditions: in vivo, 168 h, time 7 day
[28] = Toxicity in male C57BL/6 mouse assessed as CK-MB level at 100 mg/kg, ip administered for 7 days by biochemical analysis (reference value: 203.2 U/L); type: organism-based; conditions: in vivo, 168 h, time 7 day
[29] = biological target: T1, Stimulator of interferon genes protein (Mus musculus); test: Potentiation of SR717-induced mouse STING pathway activation expressed in HEK293 cells assessed as SEAP production at 50 uM incubated for 48 hrs by QUANTI-Blue solution based spectrophotometric analysis; type: cell-based; conditions: filed as agonist
[30] = biological target: T1, Stimulator of interferon genes protein (Mus musculus); test: Potentiation of MSA-2-induced mouse STING pathway activation expressed in HEK293 cells assessed as SEAP production at 50 uM incubated for 48 hrs by QUANTI-Blue solution based spectrophotometric analysis; type: cell-based; conditions: filed as agonist
[31] = biological target: T1, Stimulator of interferon genes protein (Mus musculus); test: Potentiation of DMXAA-induced mouse STING pathway activation expressed in HEK293 cells assessed as SEAP production at 50 uM incubated for 48 hrs by QUANTI-Blue solution based spectrophotometric analysis; type: cell-based

CCOC(=O)Cn1c2ccc(C)cc2c(=O)c2cc(OC)c(C)c(C)c21
Activity [1]: inactive | Activity (HEK293 [2]): Non-toxic | Activity (HEK293 [3]): Non-toxic | Activity [4]: Non-toxic | Activity [5]: Non-toxic | Activity [6]: Non-toxic | Activity [7]: Non-toxic | Activity [8]: Toxic | Activity [9]: Non-toxic | Activity [10]: Non-toxic | Activity [11]: Non-toxic | Activity [12]: Non-toxic | Activity [13]: Non-toxic | Activity [14]: Non-toxic | Activity [15]: Non-toxic | Activity [16]: Non-toxic | Activity [17]: Non-toxic | Activity [18]: Non-toxic | Activity [19]: Non-toxic | Activity [20]: 142.8 U/L | Activity [21]: 260.8 U/L | Activity [22]: 277.8 U/L | Activity [23]: 7.4 mmol/L | Activity [24]: 7.3 mmol/L | Activity [25]: 0.19 mmol/L | Activity [26]: 324.4 U/L | Activity [27]: 192.2 U/L | Activity [28]: 213.6 U/L | Activity [29]: Active | Activity [30]: Active | Activity [31]: inactive

Activity calls are given as the source filed them. No cut-off for these calls is given here.
